Source: patent US6916797B2, “α-arylethylpiperazine derivatives as neurokinin antagonists” (UCB, S.A., priority 2000, dated 2005)

Legend:
[1] = test system: verapamil binding site of the L-type calcium channel; experiment: Inhibition of [3H]D888 binding to the verapamil binding site of the L-type calcium channel (rat cerebral cortex membranes); conditions: 10 μmol/l of test substance
[2] = test system: isolated rat aorta contracted by 100 mM KCl; experiment: Effect of compound on isolated rat aorta contracted by 100 mM KCl; conditions: 10^−5 M, contraction by 100 mM KCl

Compound: O=C(O)CN1CCN(C(COCc2cc(C(F)(F)F)cc(C(F)(F)F)c2)c2ccc(Cl)c(Cl)c2)CC1 (single isomer, unassigned)
- % inhibition of [3H]D888 binding to the verapamil binding site of the L-type calcium channel ([1]; tested form: 1 H2O): + (+: inhibition comprised between 20 and 50%)

Compound: O=C(O)CN1CCN(C(COCc2cc(C(F)(F)F)cc(C(F)(F)F)c2)c2ccccc2[N+](=O)[O-])CC1 (racemic)
- % inhibition of [3H]D888 binding to the verapamil binding site of the L-type calcium channel ([1]; tested form: 2 HCl): 0 (0: inhibition < 20%)

Compound: O=P(O)(O)CCN1CCN(C(COCc2cc(C(F)(F)F)cc(C(F)(F)F)c2)c2ccccc2)CC1 (racemic)
- % inhibition of [3H]D888 binding to the verapamil binding site of the L-type calcium channel ([1]; tested form: 2 HCl): 0 (0: inhibition < 20%)

Compound: O=C(O)CN1CCN(C(COCc2cc(C(F)(F)F)cc(C(F)(F)F)c2)c2cccc(F)c2F)CC1 (racemic)
- % inhibition of [3H]D888 binding to the verapamil binding site of the L-type calcium channel ([1]; tested form: 2 maleate): 0 (0: inhibition < 20%)

Compound: O=C(O)CN1CCN(C(COCc2cc(Cl)cc(Cl)c2)c2ccccc2)CC1 (racemic)
- % inhibition of [3H]D888 binding to the verapamil binding site of the L-type calcium channel ([1]; tested form: 2 HCl): 0 (0: inhibition < 20%)
- Result: effect of compound on isolated rat aorta contracted by 100 mM KCl ([2]; tested form: 2 HCl): inactive à 10^−5 M

Compound: O=C(O)c1cccc(CN2CCN(C(COCc3cc(C(F)(F)F)cc(C(F)(F)F)c3)c3ccccc3)CC2)c1 (racemic)
- % inhibition of [3H]D888 binding to the verapamil binding site of the L-type calcium channel ([1]; tested form: 2 HCl.1/2 H2O): + (+: inhibition comprised between 20 and 50%)
- Result: effect of compound on isolated rat aorta contracted by 100 mM KCl ([2]; tested form: 2 HCl.1/2 H2O): inactive à 10^−5 M

Compound: O=C(O)CN1CCN(C(COCc2cc(Br)cc(I)c2)c2ccccc2)CC1 (racemic)
- % inhibition of [3H]D888 binding to the verapamil binding site of the L-type calcium channel ([1]; tested form: 1 maleate.1 H2O): + (+: inhibition comprised between 20 and 50%)

Compound: C[C@@H](OC[C@H](c1ccccc1)N1CCN(CCOCC(=O)O)CC1)c1cc(C(F)(F)F)cc(C(F)(F)F)c1
- % inhibition of [3H]D888 binding to the verapamil binding site of the L-type calcium channel ([1]; tested form: 2 HCl.1 H2O): 0 (0: inhibition < 20%)

Compound: O=C(O)CN1CCN(C(COCc2cc(Br)cc(Br)c2)c2ccccc2)CC1 (racemic)
- % inhibition of [3H]D888 binding to the verapamil binding site of the L-type calcium channel ([1]; tested form: 2 maleate): 0 (0: inhibition < 20%)

Compound: O=C(O)CN1CCN(C(COCc2cc(C(F)(F)F)cc(C(F)(F)F)c2)c2cc(F)c(F)c(F)c2)CC1 (racemic)
- % inhibition of [3H]D888 binding to the verapamil binding site of the L-type calcium channel ([1]; tested form: 1/2 H2O): 0 (0: inhibition < 20%)

Compound: Cc1ccc(C(COCc2cc(C(F)(F)F)cc(C(F)(F)F)c2)N2CCN(CC(=O)O)CC2)cc1 (racemic)
- % inhibition of [3H]D888 binding to the verapamil binding site of the L-type calcium channel ([1]; tested form: 1 H2O): 0 (0: inhibition < 20%)

Compound: O=C(O)c1cccc(CN2CCCN(C(COCc3cc(C(F)(F)F)cc(C(F)(F)F)c3)c3ccccc3)CC2)c1 (single isomer, unassigned)
- % inhibition of [3H]D888 binding to the verapamil binding site of the L-type calcium channel ([1]; tested form: 2 maleate.1 H2O): + (+: inhibition comprised between 20 and 50%)

Compound: O=C(O)CN1CCN(C(COCc2cc(C(F)(F)F)cc(C(F)(F)F)c2)c2cccc(Cl)c2)CC1 (single isomer, unassigned)
- % inhibition of [3H]D888 binding to the verapamil binding site of the L-type calcium channel ([1]; tested form: 2 maleate): + (+: inhibition comprised between 20 and 50%)

Compound: O=C(O)CN1CCCN(C(COCc2cc(C(F)(F)F)cc(C(F)(F)F)c2)c2ccccc2)CC1 (racemic)
- % inhibition of [3H]D888 binding to the verapamil binding site of the L-type calcium channel ([1]; tested form: 2 HCl.3/2 H2O): + (+: inhibition comprised between 20 and 50%)

Compound: C[C@@H](OC[C@H](c1ccccc1)N1CCN(CC(=O)O)CC1)c1cc(C(F)(F)F)cc(C(F)(F)F)c1
- % inhibition of [3H]D888 binding to the verapamil binding site of the L-type calcium channel ([1]; tested form: 2 HCl.5/2 H2O): 0 (0: inhibition < 20%)

Compound: CC(C)c1cccc(C(COCc2cc(C(F)(F)F)cc(C(F)(F)F)c2)N2CCN(CC(=O)O)CC2)c1 (racemic)
- % inhibition of [3H]D888 binding to the verapamil binding site of the L-type calcium channel ([1]; tested form: 2 maleate): + (+: inhibition comprised between 20 and 50%)

Compound: FC(F)(F)c1cc(COCC(c2ccccc2)N2CCN(CCCCCc3nnn[nH]3)CC2)cc(C(F)(F)F)c1 (centres unmarked)
- % inhibition of [3H]D888 binding to the verapamil binding site of the L-type calcium channel ([1]; tested form: 2 maleate): + (+: inhibition comprised between 20 and 50%)
- Result: effect of compound on isolated rat aorta contracted by 100 mM KCl ([2]; tested form: 2 maleate): inactive à 10^−5 M
